Results taken from article PMC3794980, “Identification of Conserved and HLA Promiscuous DENV3 T-Cell Epitopes” (PLoS Neglected Tropical Diseases, 2013).
Like-named read-outs stand apart in the source and are kept apart here.

Sequences of proteins named here, by UniProt entry; tags and fusion partners are left off. Residues count along the entry.
UniProt P79483, 30-266: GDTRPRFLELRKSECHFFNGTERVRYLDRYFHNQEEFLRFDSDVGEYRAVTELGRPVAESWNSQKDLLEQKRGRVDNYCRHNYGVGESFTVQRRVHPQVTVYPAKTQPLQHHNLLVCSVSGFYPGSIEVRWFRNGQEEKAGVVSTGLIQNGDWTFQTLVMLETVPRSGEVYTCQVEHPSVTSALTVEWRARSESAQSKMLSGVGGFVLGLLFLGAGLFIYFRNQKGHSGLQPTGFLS
UniProt Q30154, 30-266: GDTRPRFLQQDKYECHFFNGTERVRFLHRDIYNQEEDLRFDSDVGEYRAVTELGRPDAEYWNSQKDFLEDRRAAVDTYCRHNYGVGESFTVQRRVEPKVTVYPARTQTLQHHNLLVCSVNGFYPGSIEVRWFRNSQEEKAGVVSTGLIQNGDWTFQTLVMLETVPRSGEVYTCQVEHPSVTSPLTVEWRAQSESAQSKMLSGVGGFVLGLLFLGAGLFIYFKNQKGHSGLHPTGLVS

Experiments:
DRB1*0101 = DRB1*0101 (Homo sapiens, UniProt P01903+P01911, A100R/D57E/F55L/F60I/F76Y/I96L/L162R/M171V/P40L/Q125E/R42F/V115G/Y59C); assay: biochemical; assay type: binding
DRB1*0301 = DRB1*0301 (Homo sapiens, UniProt P01903+P01911, A100K/A102G/A103R/A169T/F55Y/I96L/K41T/L162R/M171V/P40S/Q125H/Q178H/Q39Y/R42S/S66N/T106N/T262R/W38E/Y61H); assay: biochemical; assay type: binding
DRB1*0401 = DRB1*0401 (Homo sapiens, UniProt P01903+P01911, A100K/A169T/F76Y/I96L/K127E/L162R/M171V/N62H/P40V/Q125Y/R42H/S133A/S149N/S66Y/V115G/V209L/W38E); assay: biochemical; assay type: binding
DRB1*0404 = DRB1*0404 (Homo sapiens, UniProt P01903+P01911, A100R/A169T/F76Y/I96L/K127E/L162R/M171V/N62H/P40V/Q125Y/R42H/S133A/S149N/S66Y/V209L/W38E); assay: biochemical; assay type: binding
DRB1*0405 = DRB1*0405 (Homo sapiens, UniProt P01903+P01911, A100R/A169T/D86S/F76Y/I96L/K127E/L162R/M171V/N62H/P40V/Q125Y/R42H/S133A/S149N/S66Y/V115G/V209L/W38E); assay: biochemical; assay type: binding
DRB1*0701 = DRB1*0701 (Homo sapiens, UniProt P01903+P01911, A100R/A102G/A103Q/D57E/D86V/E43K/F76Y/K127E/L162R/M171V/P40G/Q125H/Q99D/R33Q/R42Y/R54Q/S133A/S66F/T210M/V115G/Y107V/Y59L/Y89S); assay: biochemical; assay type: binding
DRB1*0802 = DRB1*0802 (Homo sapiens, UniProt P01903+P01911, A100R/A103L/A169T/F76Y/H45Y/I96F/K41T/L162R/M171V/P40S/Q125H/Q178H/Q39Y/Q99D/R218S/R42G/S66Y/V115G/W38E); assay: biochemical; assay type: binding
DRB1*0901 = DRB1*0901 (Homo sapiens, UniProt P01903+P01911, A100R/A103E/D57H/D86V/F55Y/F60I/F76Y/I96F/K127E/L162R/M171V/P40D/Q125H/Q99R/R33Q/R42F/S133A/S66N/T210M/V115G/W38K/Y107V/Y59G/Y89S); assay: biochemical; assay type: binding
DRB1*1101 = DRB1*1101 (Homo sapiens, UniProt P01903+P01911, A100R/A169T/A87E/I96F/K41T/L162R/M171V/P40S/Q125H/Q178H/Q39Y/Q99D/R42S/S66Y/T262R/V115G/W38E); assay: biochemical; assay type: binding
DRB1*1302 = DRB1*1302 (Homo sapiens, UniProt P01903+P01911, A100E/A169T/K41T/L162R/M171V/P40S/Q125H/Q178H/Q39Y/Q99D/R42S/S66N/T262R/V115G/W38E/Y61H); assay: biochemical; assay type: binding
DRB1*1501 = DRB1*1501 (Homo sapiens, UniProt P01903+P01911); assay: biochemical; assay type: binding
DRB3*0101 = DRB3*0101 (Homo sapiens, UniProt P01903+P79483); assay: biochemical; assay type: binding
DRB5*0101 = DRB5*0101 (Homo sapiens, UniProt P01903+Q30154); assay: biochemical; assay type: binding
DRB4*0101 = DRB4*0101 (Homo sapiens, UniProt P01903+P13762, G164S); assay: biochemical; assay type: binding
[1] = tested on: HLA-DR3 (DRA1*0101; -DRB1*0301) transgenic mice; details: IFN-γ ELISPOT of splenocytes, HLA-DR3 transgenic mice; printed as value+spread; '-' = no value, distinct from ND
[2] = read-out: Binding Affinity (nM) DRB1*1101
[3] = read-out: Binding Affinity (nM) DRB3*0101
[4] = read-out: Binding Affinity (nM) DRB5*0101
[5] = read-out: Binding Affinity (nM) DRB1*0701
[6] = competitive inhibition of radiolabeled standard peptide, '-' distinct from ND, read-out: Binding Affinity (nM) DRB1*0901
[7] = competitive inhibition of radiolabeled standard peptide, '-' distinct from ND, read-out: Binding Affinity (nM) DRB1*1302

Row | SMILES | IC50 (DRB1*0101) | IC50 (DRB1*0401) | IC50 (DRB1*0404) | IC50 (DRB1*0405) | IC50 (DRB1*0701) | IC50 (DRB1*0802) | IC50 (DRB1*0901) | IC50 (DRB1*1101; [2]) | IC50 (DRB1*1501) | IC50 (DRB3*0101; [3]) | IC50 (DRB5*0101; [4]) | IC50 (DRB1*0301) | other results
1 | CC(C)C[C@H](N)C(=O)N1CCC[C@H]1C(=O)N[C@@H](Cc1c[nH]c2ccccc12)C(=O)N[C@H](C(=O)N[C@@H](CO)C(=O)NCC(=O)N[C@@H](C)C(=O)N[C@H](C(=O)N[C@H](C(=O)N[C@@H](CCC(=O)O)C(=O)N[C@H](C(=O)N1CCC[C@H]1C(=O)N[C@H](C(=O)N[C@@H](Cc1c[nH]c2ccccc12)C(=O)N[C@@H](CC(N)=O)C(=O)O)[C@@H](C)O)[C@@H](C)O)[C@@H](C)O)[C@@H](C)O)[C@@H](C)O | 3.06 µM | 1290 nM | 6.21 µM | 2.85 µM | 12200 nM | 5.75 µM | 3610 nM | > 20000 nM | 3820 nM | > 20000 nM | > 20000 nM |  | IC50 (DRB1*0301; read-out: Binding Affinity (nM) DRB1*0301): > 20000 nM; IC50 (DRB1*1302; read-out: Binding Affinity (nM) DRB1*1302): > 20000 nM
2 | CC[C@H](C)[C@H](NC(=O)[C@H](CCC(=O)O)NC(=O)[C@H](C)NC(=O)[C@@H](NC(=O)[C@@H](NC(=O)CNC(=O)[C@@H](N)CCC(N)=O)C(C)C)[C@@H](C)O)C(=O)N[C@H](C(=O)N1CCC[C@H]1C(=O)N[C@@H](CCC(N)=O)C(=O)N[C@@H](C)C(=O)N[C@@H](CO)C(=O)N[C@H](C(=O)N[C@H](C(=O)N[C@@H](CCC(=O)O)C(=O)O)[C@@H](C)O)[C@@H](C)O)[C@@H](C)O [Envelope 156-170] | 0.463 µM | 7.7 nM | 0.444 µM | 0.045 µM |  | 0.033 µM |  |  | 7490 nM | > 20000 nM | > 20000 nM | 2540 nM | IC50 (DRB1*0701; [5]): > 20000 nM; IC50 (DRB1*0901; [6]): 15200 nM; IC50 (DRB1*1101): 16200 nM; IC50 (DRB1*1302; [7]): 6950 nM
3 | CC[C@H](C)[C@H](NC(=O)[C@H](C)NC(=O)[C@H](CCC(=O)O)NC(=O)[C@@H](NC(=O)[C@@H](NC(=O)[C@H](CO)NC(=O)[C@H](C)NC(=O)[C@H](CCC(N)=O)NC(=O)[C@@H]1CCCN1C(=O)[C@@H](NC(=O)[C@@H](NC(=O)[C@@H](N)CCC(=O)O)[C@@H](C)CC)[C@@H](C)O)[C@@H](C)O)[C@@H](C)O)C(=O)N[C@@H](CC(C)C)C(=O)N1CCC[C@H]1C(=O)N[C@@H](CCC(=O)O)C(=O)O [Envelope 161-175] | 3.44 µM | 115 nM | 1.25 µM | 0.691 µM | 509 nM | 0.063 µM |  | > 20000 nM |  | > 20000 nM | > 20000 nM | 2840 nM | IC50 (DRB1*0901; [6]): 4260 nM; IC50 (DRB1*1302; [7]): 68 nM; IC50 (DRB1*1501; read-out: Binding Affinity (nM) DRB1*1501): > 20000 nM
4 | CC(C)C[C@H](NC(=O)[C@H](CC(=O)O)NC(=O)[C@H](Cc1ccccc1)NC(=O)[C@@H](N)Cc1ccccc1)C(=O)N1CCC[C@H]1C(=O)N[C@@H](CC(C)C)C(=O)N1CCC[C@H]1C(=O)N[C@@H](Cc1c[nH]c2ccccc12)C(=O)N[C@H](C(=O)N[C@@H](CO)C(=O)NCC(=O)N[C@@H](C)C(=O)N[C@H](C(=O)N[C@H](C(=O)N[C@@H](CCC(=O)O)C(=O)O)[C@@H](C)O)[C@@H](C)O)[C@@H](C)O [Envelope 211-225] | 1.22 µM | 2160 nM |  | 3.58 µM |  | 1.8 µM | 3570 nM | > 20000 nM | 6170 nM | > 20000 nM |  | 6670 nM | IC50 (DRB1*0701; [5]): > 20000 nM; IC50 (DRB1*1302): 8960 nM; IC50 (DRB4*0101; read-out: Binding Affinity (nM) DRB4*0101): > 20000 nM
5 | CSCC[C@H](NC(=O)[C@H](CC(C)C)NC(=O)[C@H](CCCNC(=N)N)NC(=O)[C@@H](N)Cc1c[nH]cn1)C(=O)N[C@@H](CO)C(=O)N[C@@H](C)C(=O)N[C@@H](C)C(=O)N[C@H](C(=O)N[C@@H](CCCCN)C(=O)N[C@@H](CC(=O)O)C(=O)N[C@@H](CCC(=O)O)C(=O)N[C@@H](CCCNC(=N)N)C(=O)N[C@@H](C)C(=O)N[C@H](C(=O)N[C@@H](Cc1c[nH]cn1)C(=O)O)C(C)C)C(C)C [NS1 181-195] |  |  |  |  |  |  |  |  |  |  |  |  | Transgenic mice DR3 [1]: 119+14
6 | CC[C@H](C)[C@H](NC(=O)[C@H](CC(C)C)NC(=O)[C@H](CC(=O)O)NC(=O)[C@H](CCCCN)NC(=O)[C@H](CCCCN)NC(=O)[C@@H](NC(=O)[C@H](CO)NC(=O)[C@H](C)NC(=O)[C@@H](N)Cc1c[nH]c2ccccc12)C(C)C)C(=O)N[C@@H](CO)C(=O)N[C@@H](Cc1ccc(O)cc1)C(=O)NCC(=O)NCC(=O)NCC(=O)N[C@@H](Cc1c[nH]c2ccccc12)C(=O)O [NS3 69-83] | 3.08 µM |  |  | 9.79 µM | 2380 nM | 2.07 µM | 5050 nM |  | 30 nM |  |  | 4490 nM | IC50 (DRB3*0101): 1430 nM; IC50 (DRB4*0101): 2050 nM; IC50 (DRB5*0101): 2210 nM
7 | CC[C@H](C)[C@H](NC(=O)[C@H](CCCCN)NC(=O)[C@H](CCCCN)NC(=O)[C@H](CCC(=O)O)NC(=O)[C@H](CC(C)C)NC(=O)[C@@H]1CCCN1C(=O)[C@H](Cc1c[nH]cn1)NC(=O)[C@@H]1CCCN1)C(=O)N[C@H](C(=O)N[C@@H](CCC(N)=O)C(=O)N[C@@H](Cc1c[nH]c2ccccc12)C(=O)N[C@@H](CC(C)C)C(=O)N[C@@H](CCC(=O)O)C(=O)N[C@H](C(=O)N[C@@H](CCCCN)C(=O)NCC(=O)N[C@H](C(=O)O)C(C)C)[C@@H](C)O)[C@@H](C)O [NS5 636-652] | 1.44 µM |  | 17 µM | 11.3 µM | 352 nM | 4.75 µM |  |  | 453 nM | > 20000 nM | > 20000 nM | 8480 nM | IC50 (DRB1*0401; read-out: Binding Affinity (nM) DRB1*0401): > 20000 nM; IC50 (DRB1*0901; competitive inhibition of radiolabeled standard peptide, DRB1*0901, read-out: Binding Affinity (nM) DRB1*0901): 9880 nM; IC50 (DRB1*1101): 1070 nM; IC50 (DRB1*1302; competitive inhibition of radiolabeled standard peptide, DRB1*1302, read-out: Binding Affinity (nM) DRB1*1302): > 20000 nM
